Reference: ChEMBL document CHEMBL5543100 (Eur J Med Chem, 2024)
Calls of active or inactive are those of the source. The rule behind the calls is not given here.

Columns and labels:
OS-RC-2 [1] = test: Antiproliferative activity against human OS-RC-2 cells cultured in glucose-deficient medium assessed as reduction in cell viability at 9 uM measured after 24 hrs; type: functional, cell-based
[2] = Toxicity in male immunodeficient BALB/c nude mouse xenografted with human OS-RC-2 cells assessed as histopathological changes in spleen at 20 mg/kg/day, ip administered for 16 days by H and E staining based analysis; type: organism-based; conditions: in vivo, 384 h, time 16 day
[3] = Toxicity in male immunodeficient BALB/c nude mouse xenografted with human OS-RC-2 cells assessed as histopathological changes in liver at 20 mg/kg/day, ip administered for 16 days by H and E staining based analysis; type: organism-based; conditions: in vivo, 384 h, time 16 day
[4] = Toxicity in male immunodeficient BALB/c nude mouse xenografted with human OS-RC-2 cells assessed as histopathological changes in kidney at 20 mg/kg/day, ip administered for 16 days by H and E staining based analysis; type: organism-based; conditions: in vivo, 384 h, time 16 day
[5] = Toxicity in male immunodeficient BALB/c nude mouse xenografted with human OS-RC-2 cells assessed as histopathological changes in heart at 20 mg/kg/day, ip administered for 16 days by H and E staining based analysis; type: organism-based; conditions: in vivo, 384 h, time 16 day
[6] = Toxicity in male immunodeficient BALB/c nude mouse xenografted with human OS-RC-2 cells assessed as histopathological changes in lung at 20 mg/kg/day, ip administered for 16 days by H and E staining based analysis; type: organism-based; conditions: in vivo, 384 h, time 16 day
OS-RC-2 [7] = test: Antitumor activity against human OS-RC-2 cells xenografted in male immunodeficient BALB/c nude mouse assessed as tumor volume at 20 mg/kg/day, ip administered for 16 days and measured every other day (reference value: 741 +/- 294.89 mm3); type: functional; conditions: time 16 day

CNC(=O)c1cc(Oc2ccc(NC(=O)Nc3ccc(Cl)c(C(F)(F)F)c3)cc2)ccn1 [SORAFENIB]
Activity (OS-RC-2 [1]): Active

CCCNc1ccc2ncc(-c3ccc4[nH]ncc4c3)n2n1
Activity [2]: Non-Toxic
Activity [3]: Non-Toxic
Activity [4]: Non-Toxic
Activity [5]: Non-Toxic
Activity [6]: Non-Toxic
Activity (OS-RC-2 [7]): 280.89 mm3
